# Apparent affinities of Ab-14 variants for a coronavirus HR2 peptide

The target is the same throughout: PDVDLGDISGINAS, from the HR2 region of SARS-CoV-2 spike.

Each scFv is VH, the linker GGGGSGGGGSGGGGS, VL, as in the parent Ab-14, and differs from it in the CDRs of the light chain only.
VH: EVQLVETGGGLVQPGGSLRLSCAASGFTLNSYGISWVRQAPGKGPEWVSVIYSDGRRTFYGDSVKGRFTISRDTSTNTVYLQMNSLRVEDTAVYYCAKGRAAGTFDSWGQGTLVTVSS
VL: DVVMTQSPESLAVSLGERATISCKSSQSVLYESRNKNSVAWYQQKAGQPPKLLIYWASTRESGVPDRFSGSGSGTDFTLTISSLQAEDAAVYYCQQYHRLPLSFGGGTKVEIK

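Phage display of a naive human antibody library on the peptide gave the parent. The variants were designed computationally from a first round of random CDR variants and then made and measured. Their group label is 14L_En_Gibbs (En: ensemble of fine-tuned language models; Gibbs: Gibbs sampling). The assay is AlphaSeq: two haploid yeast populations carry antibody and antigen on their surface. Pairs that bind mate more often; barcode pairs of the diploids are counted by sequencing. Each replicate has its own calibration line, from reference interactions of the BCL2 family. There are six technical replicates.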

Each variant is given by its three light chain CDRs, as the data file delimits them; those of the parent are KSSQSVLYESRNKNSVA, WASTRES, QQYHRLPLS. The read-out is the apparent dissociation constant on a log10 scale (nM): the lower, the stronger. "ND" marks a missing value. The strain was present, yet no cells mated with the target were sequenced in that replicate, which points to weak or no binding.

{"CDR-L1": "KIEISNSWSLRGTRAIA", "CDR-L2": "QASTRAH", "CDR-L3": "QQYHRLPLT", "log10 Kd (nM) by replicate": "1.71 0.84 2.17 1.54 1.77 1.76", "signal with controls": "1/18 (2.10)"}
{"CDR-L1": "KVDMGELPNGFNRSSVA", "CDR-L2": "QAEVRAP", "CDR-L3": "QQYWRLPLE", "log10 Kd (nM) by replicate": "1.34 1.53 0.92 0.89 0.99 1.16", "signal with controls": "1/18 (2.82)"}
{"CDR-L1": "SLEMFTGMLNAYKSSIA", "CDR-L2": "NATYLVQ", "CDR-L3": "QQYYRLPIS", "log10 Kd (nM) by replicate": "1.58 1.50 1.48 1.74 1.34 1.24", "signal with controls": "1/18 (2.36)"}
{"CDR-L1": "QLDQAYRVGALWTDSIA", "CDR-L2": "HGSMRVQ", "CDR-L3": "QCYNRLPLS", "log10 Kd (nM) by replicate": "1.27 0.57 0.77 0.65 0.67 0.56", "signal with controls": "0/18"}
{"CDR-L1": "TLVGNIQYGGIMIKSIA", "CDR-L2": "DNVQRAN", "CDR-L3": "QQYYRLPLS", "log10 Kd (nM) by replicate": "1.44 0.77 0.93 0.30 1.06 0.90", "signal with controls": "0/18"}
{"CDR-L1": "MVNQHDEGFKGVKDAIA", "CDR-L2": "NAETREG", "CDR-L3": "QHYGRLPLS", "log10 Kd (nM) by replicate": "1.46 2.28 1.54 1.31 2.43 1.88", "signal with controls": "1/18 (3.16)"}
{"CDR-L1": "TITGMVEEIGTTQKNIA", "CDR-L2": "EGEFRCM", "CDR-L3": "QQYSRLPLS", "log10 Kd (nM) by replicate": "1.96 0.86 2.95 1.77 1.55 3.11", "signal with controls": "1/18 (1.18)"}
{"CDR-L1": "VMFMGLYWGNIEHQAIA", "CDR-L2": "NVTMREK", "CDR-L3": "QQYHRLPLQ", "log10 Kd (nM) by replicate": "2.28 2.82 ND 3.00 2.33 ND", "signal with controls": "1/18 (3.15)"}
{"CDR-L1": "ALQQKGATLHEARQNIA", "CDR-L2": "HSDTRAA", "CDR-L3": "QQYSTLPLA", "log10 Kd (nM) by replicate": "0.20 0.00 0.12 -0.08 0.05 -0.01", "signal with controls": "0/18"}
{"CDR-L1": "RFDQTEQMGIRDYNSVA", "CDR-L2": "NGSTSAT", "CDR-L3": "QHYSRLPIS", "log10 Kd (nM) by replicate": "1.89 1.67 1.19 1.52 2.03 1.54", "signal with controls": "0/18"}
{"CDR-L1": "KFQIGPNQGHSMEHNIA", "CDR-L2": "EGTYAEE", "CDR-L3": "QQYARLPLQ", "log10 Kd (nM) by replicate": "1.27 1.35 0.85 0.79 1.45 0.85", "signal with controls": "0/18"}
{"CDR-L1": "QLAVDRLQEYKMGAAIA", "CDR-L2": "GKTTRED", "CDR-L3": "QQYARLPLS", "log10 Kd (nM) by replicate": "0.53 0.45 0.23 0.62 0.52 0.61", "signal with controls": "0/18"}
{"CDR-L1": "HITDLMYNNNEGMKNIA", "CDR-L2": "DKNISVM", "CDR-L3": "QQYFRLPLS", "log10 Kd (nM) by replicate": "-0.14 -0.22 -0.11 -0.29 -0.31 -0.07", "signal with controls": "3/18 (3.68)"}
{"CDR-L1": "KIRVHNLMFYQNENSIA", "CDR-L2": "GVSNRAY", "CDR-L3": "QQYYHLPLT", "log10 Kd (nM) by replicate": "1.37 0.69 0.29 0.33 0.96 0.77", "signal with controls": "0/18"}
{"CDR-L1": "SMIPFDNAIGKGTNNIA", "CDR-L2": "HVSVRAS", "CDR-L3": "QQYARLPLV", "log10 Kd (nM) by replicate": "0.81 0.77 0.62 0.87 0.74 0.61", "signal with controls": "4/18 (2.84)"}
{"CDR-L1": "KLNSDSVLGWNINNSVA", "CDR-L2": "EHSEVVQ", "CDR-L3": "QQYVHLPLM", "log10 Kd (nM) by replicate": "2.09 1.51 1.89 2.18 1.64 2.90", "signal with controls": "0/18"}
{"CDR-L1": "FLAYASDQTGLQKNNIA", "CDR-L2": "QVNLLEN", "CDR-L3": "QQYERLPLA", "log10 Kd (nM) by replicate": "1.38 0.66 0.47 0.19 0.58 1.58", "signal with controls": "1/18 (2.49)"}
{"CDR-L1": "KLRNEAIGWYRNGASIA", "CDR-L2": "DEHYRVD", "CDR-L3": "QQYHHLPLL", "log10 Kd (nM) by replicate": "0.69 0.77 0.34 0.52 0.44 1.17", "signal with controls": "0/18"}
{"CDR-L1": "KLPHLSFVHDREKNNVA", "CDR-L2": "DLNVKAA", "CDR-L3": "QQYDRLPLA", "log10 Kd (nM) by replicate": "0.64 0.95 0.62 0.30 0.60 0.94", "signal with controls": "0/18"}
{"CDR-L1": "NVHALMNHSSDFQQSIA", "CDR-L2": "DEECRDA", "CDR-L3": "QQYERLPLS", "log10 Kd (nM) by replicate": "ND ND ND ND ND ND", "signal with controls": "0/18"}
{"CDR-L1": "HITDLMYNNNEGMQNIA", "CDR-L2": "DKAISVN", "CDR-L3": "QQYFRLPLD", "log10 Kd (nM) by replicate": "0.86 0.73 0.64 0.71 0.96 1.21", "signal with controls": "2/18 (2.68)"}
{"CDR-L1": "MGLESYYQGVHEMNNVA", "CDR-L2": "EGDQKLD", "CDR-L3": "QQYYRLPLA", "log10 Kd (nM) by replicate": "0.94 1.28 0.50 0.74 0.46 0.79", "signal with controls": "0/18"}
{"CDR-L1": "QLHAYTQGFKRADGNIA", "CDR-L2": "DISYRVT", "CDR-L3": "QQYGRLPLS", "log10 Kd (nM) by replicate": "0.99 1.30 1.15 1.62 1.75 1.13", "signal with controls": "4/18 (3.04)"}
{"CDR-L1": "KIQMFEGTLMEQINSIA", "CDR-L2": "NSEVIVQ", "CDR-L3": "QSYFRLPLS", "log10 Kd (nM) by replicate": "ND 2.03 1.46 2.43 2.03 1.68", "signal with controls": "0/18"}
{"CDR-L1": "KLMGQGGHSIAHANSIA", "CDR-L2": "NVDNVDA", "CDR-L3": "QQYAHLPLS", "log10 Kd (nM) by replicate": "1.00 1.49 0.96 1.35 0.80 1.74", "signal with controls": "2/18 (1.91)"}
{"CDR-L1": "KFMMSGEYQMHEQNNIA", "CDR-L2": "QGEIKCK", "CDR-L3": "QQYFRLPIT", "log10 Kd (nM) by replicate": "ND ND ND 1.06 ND ND", "signal with controls": "0/18"}
{"CDR-L1": "KMMNSLGAFKQSEDNVA", "CDR-L2": "EVEQKVA", "CDR-L3": "QQYDHLPLT", "log10 Kd (nM) by replicate": "1.69 1.25 1.12 1.20 1.38 1.57", "signal with controls": "0/18"}

The range of this assay differs from that of the first round, and the authors advise against merging the two. Three control strains display no target. For all light chain designs, 4% of the pairings with them gave a signal, with a median of 2.64 and one signal in twenty below 1.59, so weak values seen in few replicates may be background. The control count says in how many pairings with the empty strains this scFv gave a signal, with their mean in brackets. The authors averaged sequences with at least three values out of six and counted those with two or fewer as poor binders. The parent sequence was in this pool as ten entries: three were never detected, three once, and four in most replicates, with averages from 0.34 to 2.37.

Reference: Li et al. 2023, doi:10.1038/s41467-023-39022-2. File: FLAb, binding data.